Data published in article PMC9001978, “Determining the Effects of Differential Expression of GRKs and β-arrestins on CLR-RAMP Agonist Bias” (Frontiers in Physiology, 2022).

Test system: HEK293T cells
Experiment: cAMP accumulation in HEK293T cells with endogenous CLR and RAMPs
Type: cell-based
Settings: far lower potency than expected of CLR with any RAMP

Structure (SMILES): CC(C)C[C@H](NC(=O)CNC(=O)[C@H](C)NC(=O)[C@H](CC(C)C)NC(=O)[C@H](CCCNC(=N)N)NC(=O)[C@H](Cc1c[nH]cn1)NC(=O)[C@@H](NC(=O)[C@@H](NC(=O)[C@@H]1CSSC[C@H](NC(=O)[C@H](C)N)C(=O)N[C@@H](CC(=O)O)C(=O)N[C@@H]([C@@H](C)O)C(=O)N[C@@H](C)C(=O)N[C@@H]([C@@H](C)O)C(=O)N1)C(C)C)[C@@H](C)O)C(=O)N[C@@H](CC(C)C)C(=O)N[C@@H](CO)C(=O)N[C@@H](CCCNC(=N)N)C(=O)N[C@@H](CO)C(=O)NCC(=O)NCC(=O)N[C@H](C(=O)N[C@H](C(=O)N[C@@H](CCCCN)C(=O)N[C@@H](CC(N)=O)C(=O)N[C@@H](CC(N)=O)C(=O)N[C@@H](Cc1ccccc1)C(=O)N[C@H](C(=O)N1CCC[C@H]1C(=O)N[C@H](C(=O)N[C@@H](CC(N)=O)C(=O)N[C@H](C(=O)NCC(=O)N[C@@H](CO)C(=O)N[C@@H](CCCCN)C(=O)N[C@@H](C)C(=O)N[C@@H](Cc1ccccc1)C(N)=O)C(C)C)[C@@H](C)O)C(C)C)C(C)C)C(C)C [CGRP, calcitonin gene-related peptide]
- cAMP response via endogenous low levels of CLR and RAMPs: small response
